# Binding of CDR-mutated scFvs to a peptide of the spike HR2 region

From the AlphaSeq antibody data of Li et al. 2023 (doi:10.1038/s41467-023-39022-2), copy in the FLAb collection.

Target peptide (SARS-CoV-2 spike, HR2 region): PDVDLGDISGINAS

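These sequences belong to a second round, designed from the earlier measurements on random variants of the parent. Their group label is 14L_En_Gibbs (En: ensemble of fine-tuned language models; Gibbs: Gibbs sampling). AlphaSeq pools MATa yeast showing the antibodies with MATalpha yeast showing the peptide. Pairs that bind mate more often; barcode pairs of the diploids are counted by sequencing. Scores were corrected for input abundance and mapped to Kd with protein pairs of known affinity run in the same pool. The assay was run in six technical replicates.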

Each scFv is VH, a (GGGGS)3 linker, VL, as in the parent Ab-14, and differs from it in the CDRs of the light chain only.
VH: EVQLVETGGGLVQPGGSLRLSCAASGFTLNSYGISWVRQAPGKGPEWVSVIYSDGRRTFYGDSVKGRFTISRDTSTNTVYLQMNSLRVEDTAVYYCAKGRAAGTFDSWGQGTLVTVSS
VL: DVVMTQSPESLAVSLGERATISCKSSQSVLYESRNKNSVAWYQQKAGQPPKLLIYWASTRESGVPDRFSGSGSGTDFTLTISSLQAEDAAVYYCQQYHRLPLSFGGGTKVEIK

The parent's light chain CDRs are KSSQSVLYESRNKNSVA, WASTRES, QQYHRLPLS; each variant's own CDRs replace them letter for letter. Values are log10 of the apparent Kd in nM; lower means stronger binding. "nd" marks a missing value. The strain was present, yet no cells mated with the target were sequenced in that replicate, which points to weak or no binding. In the paper, a design with two or fewer of six values counts as a poor binder. As a blank, each scFv also met three strains without target: over all light chain designs, 4% of these pairings were detected, typically at 2.64 and seldom below 1.59. The control count says in how many pairings with the empty strains this scFv gave a signal, with their mean in brackets. The range of this assay differs from that of the first round, and the authors advise against merging the two. The parent sequence was in this pool as ten entries: three were never detected, three once, and four in most replicates, with averages from 0.34 to 2.37.

| # | CDR-L1 | CDR-L2 | CDR-L3 | log10 Kd (nM) by replicate | signal with controls |
|---|---|---|---|---|---|
| 1 | HIQGYFTMPENANNSIA | EKHYRVR | QQYYRLPLA | 0.94 0.71 0.94 0.94 1.09 0.98 | 3 of 18 (2.90) |
| 2 | RMDMAMPHAHSNINSIA | EGAIQAD | QQYDRLPLS | 1.00 0.87 1.37 0.68 1.20 1.18 | 0 of 18 |
| 3 | QFDLFENYQGMQNAAIA | GATNRHT | QQYQKLPLS | 0.32 0.47 0.26 0.22 0.10 0.54 | 3 of 18 (2.50) |
| 4 | KLEDQMQTSFASDNSVA | DTNMGHE | QQYNRLPLV | 0.75 0.57 0.87 0.58 0.92 1.06 | 3 of 18 (2.94) |
| 5 | TLWDSIQGGDKAKKNVA | DEQVRMV | QQYYRLPLS | 0.34 0.07 0.07 -0.34 -0.08 -0.01 | 0 of 18 |
| 6 | IMSDSQERDASRLRNIA | DQTTRAM | QQYARLPLS | -0.07 -0.36 -0.34 -0.45 -0.40 -0.19 | 1 of 18 (2.11) |
| 7 | MLVGPDEMEEHNWQSVA | SAEALAM | QQYFRLPLS | 0.96 0.80 0.04 0.57 0.68 0.15 | 1 of 18 (2.74) |
| 8 | KLAMILSMWAGTYHGVA | DANHKAD | QQYNRLPLS | 0.32 0.12 0.09 0.18 0.14 0.35 | 2 of 18 (3.35) |
| 9 | MLDNCQEGYYQKNNNVA | EMNARCY | QQYGRLPLM | 1.52 2.02 2.86 1.59 2.28 1.77 | 0 of 18 |
| 10 | QIDDEEPSEGLKWNSIA | GVATRLQ | QQYARLPLI | 1.18 0.74 0.59 0.64 0.51 0.70 | 3 of 18 (2.87) |
| 11 | RIQMGDLEGRTAWNNIA | NMEEIYR | QQYVRLPLY | 0.42 0.76 0.83 0.13 0.75 0.28 | 0 of 18 |
| 12 | KVDISATVGYMHKSGIA | EHDMRVG | QQYFRLPLA | 0.47 0.77 0.68 0.71 0.90 0.63 | 0 of 18 |
| 13 | MITEGQLGENKNSSNIA | SQNQKTD | QQYQRLPLI | 1.62 0.64 1.11 0.91 0.95 1.33 | 1 of 18 (2.43) |
| 14 | SLAMLLNQVYAYGSNIA | NAQELVV | QQYYRLPLT | nd 1.38 1.29 1.04 1.70 1.85 | 0 of 18 |
| 15 | SMIPFDNQIMKGTNNIA | HTSVRAS | QQYARLPLV | 0.90 0.35 0.53 0.71 0.67 0.59 | 0 of 18 |
| 16 | KFYDQDPELNYMDNSIA | GMTVSVE | QQYWRLPLT | 1.27 1.56 1.25 1.51 1.24 1.42 | 1 of 18 (2.81) |
| 17 | KIDENWNHGANRDNNIA | EARTVAA | QQYFRLPII | 0.94 0.73 0.70 0.43 0.67 0.80 | 2 of 18 (3.13) |
| 18 | NVDISENVNYNHKAAVA | GHDERVG | QQYSRLPLS | 0.01 0.20 0.18 -0.02 0.17 0.19 | 1 of 18 (2.45) |
| 19 | QLHAYTQGFKRADASIA | EISYRAI | QQYGRLPLS | nd nd nd nd nd 2.18 | 1 of 18 (1.59) |
| 20 | QLPNYRGDGYLQKNNVA | EGTERSH | QQYMRLPLF | -0.05 0.27 0.13 0.20 0.31 0.03 | 0 of 18 |
| 21 | HMKDMPGQGPQTYSSIA | HAEIREP | QQYYRLPLM | -0.06 -0.15 -0.11 -0.18 -0.27 0.00 | 0 of 18 |
| 22 | NMTEQVFNGSRNKYNIA | AEVKRVY | QQYQRLPLM | 2.01 1.80 2.24 1.72 1.65 3.53 | 1 of 18 (2.81) |
| 23 | QIQSESEHPYKDKNSMA | DSECKAA | QQYFRLPLM | 0.77 0.88 0.25 0.58 0.28 0.59 | 0 of 18 |
| 24 | SLRDKIVGGDKYRNAIA | GRQVRAK | QQYHRLPLS | 1.79 1.95 1.29 2.36 1.57 1.90 | 2 of 18 (3.55) |
| 25 | HISIKLPGNWYMMDSVA | HSELRAE | QQYDRLPLG | 2.08 1.42 1.01 1.97 1.26 1.45 | 2 of 18 (2.24) |
| 26 | DVTVVDNGDSKIQNSIA | SGVEKCD | QQYSRLPLA | 0.86 1.63 1.01 0.90 2.14 1.26 | 1 of 18 (1.24) |
| 27 | KVTMYELEMRFNGSAVA | AAEVRAN | QQYWRLPLE | 1.26 1.30 1.16 0.65 1.76 1.32 | 1 of 18 (2.72) |
| 28 | HIMKFMSQEGGARNNVA | GDTKLAQ | QHYHRLPLS | nd 1.58 1.37 nd nd 2.66 | 0 of 18 |
| 29 | QTTSFYQHGDDQNQAMA | DVTMRDQ | QQYSRLPLS | 0.62 0.63 0.60 0.72 0.93 0.75 | 1 of 18 (2.35) |
| 30 | IVTEAQNDNSLYTNNIA | EGENTLA | QQYFRLPLM | 0.53 0.46 0.88 1.39 0.81 1.58 | 0 of 18 |
| 31 | HMNHEYLEYSNYEGAIA | HGSQRLY | QQYSHLPLS | 0.39 0.21 0.12 0.10 0.12 0.25 | 1 of 18 (1.80) |
| 32 | TLHGNIQYGGIMIKSIA | DNVQRAN | QQYTRLPLS | 0.38 0.34 0.24 0.13 0.48 0.34 | 0 of 18 |
| 33 | RINVFQNMSTQGNNSIA | GAEQKVH | QQYMRLPLY | nd 2.34 2.26 2.48 2.76 1.33 | 0 of 18 |
| 34 | KLSWLSLHGDLRWSAVA | NEVVRLA | QQYFRLPIQ | nd 1.35 nd nd nd nd | 0 of 18 |
| 35 | HYFQQMRDDLEENNPIA | NASIRES | QQYGRLPLT | nd nd nd nd nd 1.28 | 0 of 18 |
| 36 | NVDISQNTNYNHKSNVA | DHDERVI | QQYSRLPLS | 0.12 -0.15 -0.03 0.03 0.04 -0.02 | 0 of 18 |
| 37 | QMYPFEVAKGEGRNNVA | HVSVRAL | QQYFRLPLV | nd nd nd nd nd 1.19 | 0 of 18 |
| 38 | QLDWYNTYATASASNIA | DKAQRAN | QQYMRLPLM | -0.09 -0.19 -0.35 -0.39 -0.38 -0.25 | 2 of 18 (3.24) |
| 39 | KLDLNNGEMDKKGQNIA | EASTAGT | QSYWRLPLS | nd nd nd nd nd nd | 0 of 18 |
| 40 | KMWDNEYDTAAMNHSIA | NDSLERD | QQYDRLPLA | nd nd nd nd nd 3.46 | 0 of 18 |